Measurements published in ChEMBL document CHEMBL3352474, “Design, synthesis and biological evaluation of FLT3 covalent inhibitors with a resorcylic acid core” (Bioorg Med Chem, 2014).

Sequences of proteins named here, by UniProt entry; tags and fusion partners are left off.
UniProt P36888, whole entry: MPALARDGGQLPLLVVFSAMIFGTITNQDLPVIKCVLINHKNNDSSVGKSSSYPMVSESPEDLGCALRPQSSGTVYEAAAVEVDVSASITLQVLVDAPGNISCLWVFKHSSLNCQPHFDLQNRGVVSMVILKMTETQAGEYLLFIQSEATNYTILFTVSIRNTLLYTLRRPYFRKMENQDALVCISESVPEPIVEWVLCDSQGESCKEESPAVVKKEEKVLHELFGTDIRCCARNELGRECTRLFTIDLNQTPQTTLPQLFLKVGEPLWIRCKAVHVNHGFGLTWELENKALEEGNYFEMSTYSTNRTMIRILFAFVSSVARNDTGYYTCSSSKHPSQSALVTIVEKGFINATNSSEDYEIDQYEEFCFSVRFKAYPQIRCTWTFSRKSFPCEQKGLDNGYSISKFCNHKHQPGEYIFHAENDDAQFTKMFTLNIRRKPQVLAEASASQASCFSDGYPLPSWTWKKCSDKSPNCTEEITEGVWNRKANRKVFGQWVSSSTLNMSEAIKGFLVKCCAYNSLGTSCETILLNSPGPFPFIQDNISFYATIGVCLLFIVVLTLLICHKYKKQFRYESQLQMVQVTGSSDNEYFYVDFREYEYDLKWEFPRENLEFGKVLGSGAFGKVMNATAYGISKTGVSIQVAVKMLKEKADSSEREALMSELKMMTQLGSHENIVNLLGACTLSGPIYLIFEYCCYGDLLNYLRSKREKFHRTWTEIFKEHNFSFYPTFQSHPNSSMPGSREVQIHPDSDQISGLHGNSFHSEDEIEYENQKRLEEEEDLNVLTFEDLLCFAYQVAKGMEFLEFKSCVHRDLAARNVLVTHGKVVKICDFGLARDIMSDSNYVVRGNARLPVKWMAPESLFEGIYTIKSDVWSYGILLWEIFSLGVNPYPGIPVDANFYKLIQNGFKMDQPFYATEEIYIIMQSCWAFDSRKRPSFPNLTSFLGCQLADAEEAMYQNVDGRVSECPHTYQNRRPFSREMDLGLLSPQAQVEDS

Molecular target: Receptor-type tyrosine-protein kinase FLT3 (Homo sapiens, UniProt P36888)
Experiment: Reversible inhibition of FLT3 (unknown origin) assessed as dissociation constant

SMILES	K
C=CC(=O)NC/C=C/c1cc(OCCCN2CCOCC2)cc(O)c1C(=O)OC(C)C	0.103 min⁻¹
C=CS(=O)(=O)NC/C=C/c1cc(OC)cc(O)c1C(=O)OC(C)C	0.118 min⁻¹
